# Experimental data published in ChEMBL document CHEMBL3244147 (J Med Chem, 1978).
# Test system: Mus musculus
# Test: Toxicity in ip dosed CF1 mouse after 14 days of injection
# Format: organism-based
# Details: in vivo, 336 h
# Method in brief: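 Female Carworth Farms mice, 16-20 g. Compound was suspended in 1% aqueous methylcellulose (ultrasonicated if insoluble) and diluted to doses of 4-324 mg/kg, given as 0.45 mL per mouse by a single intraperitoneal injection. Five mice per dose; survivors were counted at 14 days. LD50 is expressed in μmol/kg.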
structure (smiles),measurement,value
Cl.Nc1ccc(N(CCCl)CCCl)cc1,LD50,10.8 µmol/kg
